Experimental data published in ChEMBL document CHEMBL1629653, “CMY-31 and CMY-36 cephalosporinases encoded by ColE1-like plasmids” (Antimicrob Agents Chemother, 2009).

Key:
[1] = Activity of CMY-2 by spectrophotometry
Summary of the method: (§1)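 CMY β-lactamases purified from sonicated, ultracentrifuge-clarified extracts of E. coli DH5α clones (pB-cmy36, pB-cmy2) by Q- then S-Sepharose ion exchange (>90% pure by SDS-PAGE); steady-state hydrolysis kinetics measured spectrophotometrically, CMY-2 run in parallel.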

[2] = Ratio of Kcat to Km of CMY-2 by spectrophotometry; summary of the method: as §1

Km [1]: 5 µM | kcat [1]: 160 s⁻¹ | kcat/Km [2]: 3.2e+07 M⁻¹ s⁻¹
Structure (SMILES): CC(=O)OCC1=C(C(=O)O)N2C(=O)[C@@H](NC(=O)Cc3cccs3)[C@H]2SC1
